From patent US8263596B2, “Kinase inhibitors and method of treating cancer” (University Health Network, priority 2010, dated 2012) come the findings set out here.

The experiment has as its target T1, human PLK4 (Homo sapiens, UniProt O00444).
T1 construct: amino terminal GST fusion of residues 1-391 of human PLK4; made in house; host or cells: E. coli
T1 sequence (O00444 1-391): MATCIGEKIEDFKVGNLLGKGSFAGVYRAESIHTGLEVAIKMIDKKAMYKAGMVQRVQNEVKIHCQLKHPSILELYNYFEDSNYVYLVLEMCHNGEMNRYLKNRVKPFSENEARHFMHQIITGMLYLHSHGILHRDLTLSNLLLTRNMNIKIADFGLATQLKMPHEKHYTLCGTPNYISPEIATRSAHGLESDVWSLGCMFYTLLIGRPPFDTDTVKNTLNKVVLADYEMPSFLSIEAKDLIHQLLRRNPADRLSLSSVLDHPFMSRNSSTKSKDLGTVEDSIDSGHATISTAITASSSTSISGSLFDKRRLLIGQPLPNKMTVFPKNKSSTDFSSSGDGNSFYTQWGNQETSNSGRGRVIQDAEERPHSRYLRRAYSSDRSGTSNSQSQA
Description: PLK4 inhibition assay (indirect ELISA). The class given is biochemical.

Like-named read-outs stand apart in the source and are kept apart here.

With `COc1ccc2c(c1)[C@]1(C[C@H]1c1ccc3c(-c4ccc(CN(C)C)cc4)n[nH]c3c1)C(=O)N2` (relative stereo) [Example A166, (1R*,2S*)-2-(3-(4-((dimethylamino)methyl)phenyl)-1H-indazol-6-yl)-5′-methoxyspiro[cyclopropane-1,3′-indolin]-2′-one 2,2,2-trifluoroacetate], the IC50 was less than 100 nM.

As to `COc1ccc2c(c1)[C@]1(C[C@H]1c1ccc3c(-c4ccc(N5CCOCC5)nc4)n[nH]c3c1)C(=O)N2` (relative stereo) [Example A20], where the note is “read-out: IC50 Ranges PLK4”, the IC50 is less than 100 nM.
